# Assay outcomes deposited in PubChem BioAssay by Broad Institute.
# This is a sample that favours compounds with a hit; in the whole collection about 0.73% have one here.
# RAD52 inh – inhibitors of human RAD52 DNA annealing; P43351; recombinant RAD52 DNA annealing, FRET fluorescence; inhibition, % at 18.7 µM; hit rate 0.46% among 360,000; AID 651710;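 active = every replicate showing at least 50% inhibition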
# RAD54 inh – RAD54 (human) branch migration inhibition; Q92698; inhibition, % at 10.4 µM; hit rate 0.14% among 360,000; RAD54 Holliday junction branch migration, FAM/BHQ fluorescence;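 active = mean normalized replicate activity at least 40 and at least half of replicates scoring 40 or more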;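 also: 0% = median of neutral control wells and 100% = median of positive control wells; inhibitors cause a drop in the FAM fluorescence signal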
# Yeast UUG start-1 – modulators of start codon recognition fidelity in yeast; S. cerevisiae UUG-firefly luciferase reporter, luminescence/redox ratio; AID 602363; 350,000 tested, 0.13% active; activity score, % at 18.7 µM;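 active = replicate mean at a twofold rise or more, about +100% in these data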;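 also: firefly luciferase made from a UUG start codon reports start codon fidelity; reporter light over untreated wells divided by growth signal over untreated wells; some hits fall short of that in this replicate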
# Xi reactivation – reactivates the inactive X chromosome in mouse fibroblasts. activation, % at 7.58 µM. AID 743238. XiGFP mouse fibroblasts, % GFP-positive cells imaging, 3 d; cells co-treated with 5-aza-dC sensitizer; scaled so ellipticine positive control = 100%. hit rate 0.055% among 360,000;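 active = mean normalized replicate activation at least 10% and every replicate at or above 10%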;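 also: 0% = median of on-plate neutral control wells and 100% = ellipticine 6 µM median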
#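 System: SV40-immortalized XiGFP fibroblast cells, line 68-5-11 / Incubation: 3-day compound exposure, then 15 min fixation at room temperature / Compound: single concentration per compound, delivered by pin transfer / Buffer or medium: DMEM plus 5-aza-dC sensitizer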
# E-sel inducer – induces E-selectin expression in human endothelial cells. hit rate 0.37% among 260,000. HUVEC E-selectin immunofluorescence imaging; normalized: neutral wells 0, TNF-alpha wells 100. activation, % at 7.58 µM;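 active = mean E-selectin-positive cell signal at least 10% of the positive control, reached in at least 60% of replicates, without over 20% cell loss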
#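 Assay system: HUVEC primary endothelial cells. Input: 3,000 HUVEC seeded per well. Doses: one compound dose added by pin transfer. Read-out basis: % PE-positive cells. Benchmarks: TNF-alpha high, DMSO low. Detection: immunofluorescence imaging. Buffer or medium: EGM-2, gelatin.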
# Yeast UUG start-2 – alters UUG start codon use in yeast | shares compounds with Yeast UUG start-1 | S. cerevisiae UUG-start firefly luciferase, luminescence, 4 h; 100% means double the DMSO signal | activation, % at 38 µM | 540 tested, under 10 active;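 active = signal increase whose fitted curve reaches an absolute level of 40 at a concentration under 10 µM; inactive = activity opposite to the expected increase, or the rest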
# An asterisk follows results filed as active; i = inactive; · = no result.
1	O=C(C[C@@H]1C[C@H]2c3cc(NC(=O)Nc4ccc(C(F)(F)F)cc4)ccc3O[C@H]2[C@@H](CO)O1)NCCc1ccccc1
2	O=C(Nc1ccccc1)NC1(c2cn(CC(=O)N3CCN(c4ccccc4)CC3)nn2)CCCCC1
3	CC12CCC(C(=O)N(CC(O)CN3CCN(Cc4ccccc4)CC3)C1=O)C2(C)C (stereo unspecified)
4	COc1cccc(Oc2ccc(OC)cc2C(=O)O)c1
5	COc1ccc(NC(=O)N(C)C[C@@H]2Oc3cc(-c4ccncc4)ccc3S(=O)(=O)N([C@@H](C)CO)C[C@@H]2C)cc1
6	COc1ccc(NC(=O)N(C)C[C@@H]2Oc3cc(-c4ccncc4)ccc3S(=O)(=O)N([C@H](C)CO)C[C@@H]2C)cc1
7	C[C@H](CO)N1C[C@H](C)[C@@H](CN(C)C(=O)Nc2ccccc2F)Oc2cc(Br)ccc2S1(=O)=O
8	Cc1ccccc1-c1ccc2c(c1)O[C@H](CN(C)C(=O)c1ccccn1)[C@@H](C)CN([C@@H](C)CO)S2(=O)=O

assay / entry | 1 | 2 | 3 | 4 | 5 | 6 | 7 | 8
RAD54 inh | 5 | -8 | -5 | -13 | 10 | -9 | 8 | -2
Yeast UUG start-2 | · | i | -5 | -17 | · | i | · | ·
E-sel inducer | 3 | · | · | · | 0 | 0 | 0 | 0
RAD52 inh | -5 | 8 | -25 | -21 | 9 | 3 | -7 | -6
Yeast UUG start-1 | -15 | 124* | 102* | 117* | -6 | 172* | 5 | 0
Xi reactivation | 0 | · | 0 | 0 | -1 | 0 | 0 | 0

# Rewritten as tab-separated lines: part of the list above
no.	Structure	RAD54 inh	Yeast UUG start-2	E-sel inducer	RAD52 inh	Yeast UUG start-1	Xi reactivation
1	O=C(C[C@@H]1C[C@H]2c3cc(NC(=O)Nc4ccc(C(F)(F)F)cc4)ccc3O[C@H]2[C@@H](CO)O1)NCCc1ccccc1	5	·	3	-5	-15	0
2	O=C(Nc1ccccc1)NC1(c2cn(CC(=O)N3CCN(c4ccccc4)CC3)nn2)CCCCC1	-8	i	·	8	124*	·

# Later entries
9	COc1ccccc1NC(=O)N(C)C[C@@H]1Oc2cc(Br)ccc2S(=O)(=O)N([C@@H](C)CO)C[C@H]1C
10	COc1ccc(-c2ccc3c(c2)O[C@H](CN(C)C(=O)c2ccccc2F)[C@H](C)CN([C@@H](C)CO)S3(=O)=O)cc1
11	COc1ccc(-c2ccc3c(c2)O[C@H](CN(C)C(=O)c2ccccc2F)[C@H](C)CN([C@H](C)CO)S3(=O)=O)cc1
12	Cc1ccccc1-c1ccc2c(c1)O[C@H](CN(C)C(=O)c1ccccn1)[C@H](C)CN([C@H](C)CO)S2(=O)=O
13	CC(C)N(CCc1ccncc1)C(=S)Nc1ccc(F)c(Cl)c1
14	COc1ccc(NC(=S)N(CCc2ccncc2)C(C)C)cc1Cl
15	C[C@H]1CN([C@@H](C)CO)C(=O)c2cc(NC(=O)Cc3ccccc3)ccc2O[C@H]1CN(C)S(=O)(=O)c1ccccc1
16	O=C(NCc1ccc(F)cc1)[C@@H]1[C@@H](CO)[C@@H]2Cn3c(cccc3=O)[C@@H]2N1CC1CC1

assay / entry | 9 | 10 | 11 | 12 | 13 | 14 | 15 | 16
RAD54 inh | 0 | -10 | -8 | 9 | -5 | -2 | 3 | 10
Yeast UUG start-2 | i | · | i | i | -11 | · | · | ·
E-sel inducer | 0 | 0 | 0 | -1 | · | · | 0 | 0
RAD52 inh | 3 | 13 | 0 | 15 | -35 | -2 | -30 | -15
Yeast UUG start-1 | 109* | 27 | 25* | 139* | 263* | -15 | 9 | ·
Xi reactivation | 0 | 0 | 0 | -1 | 0 | 0 | 0 | 0

17	Cc1cc(NC(=O)COC(=O)COc2ccc(C(=O)c3ccccc3)cc2)no1
18	O=C(C[C@@H]1C=C[C@H](NC(=O)C2CC2)[C@@H](CO)O1)Nc1ccccc1
19	O=C(O)C(c1ccccc1)C(c1ccccc1)c1ccccc1 (stereo unspecified)
20	O=C(C[C@H]1CC[C@H]2[C@@H](COC[C@@H](O)CN2C(=O)c2ccc(F)cc2)O1)NCc1cccc(F)c1
21	Cc1noc(C)c1NC(=O)Nc1ccc2c(c1)C(=O)N([C@H](C)CO)C[C@@H](C)[C@H](CN(C)Cc1ccc(Cl)c(Cl)c1)OCCCC[C@@H](C)O2
22	Cn1nnnc1SCC(=O)c1cccs1
23	Cc1cc(C)c(-n2nnnc2SCC(=O)c2cccs2)c(C)c1
24	C[C@H]1CN([C@@H](C)CO)C(=O)c2cc(-c3ccc(C#N)cc3)cnc2O[C@H]1CN(C)C(=O)c1cccnc1
25	C[C@@H]1CN([C@@H](C)CO)C(=O)c2cc(-c3cccc(F)c3)cnc2O[C@@H]1CN(C)C(=O)c1cccc(F)c1

assay / entry | 17 | 18 | 19 | 20 | 21 | 22 | 23 | 24 | 25
RAD54 inh | 6 | -2 | 0 | 10 | 1 | -4 | -2 | 6 | -3
Yeast UUG start-2 | 6 | · | 2 | · | · | · | -3 | · | i
E-sel inducer | · | 0 | · | 0 | 0 | · | · | 0 | 0
RAD52 inh | · | 2 | 3 | -11 | 11 | · | -6 | 7 | 9
Yeast UUG start-1 | 184* | -21 | 431* | · | 11 | -18 | active | -6 | active
Xi reactivation | · | 0 | 0 | 0 | 0 | · | 0 | -1 | -1
